Assay outcomes (PubChem)
E-selectin induc: E-selectin induction on HUVECs; HUVEC E-selectin immunofluorescence imaging; normalized: neutral wells 0, TNF-alpha wells 100; P16581; 260,000 tested, 0.37% active; activation, % at 7.58 µM;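 active = mean E-selectin-positive cell signal at least 10% of the positive control, reached in at least 60% of replicates, without over 20% cell loss; inconclusive = no rule given, readout overlaps actives, possibly toxicity-flagged; inactive = the rest, including those meeting only one limit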
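System: HUVEC / Compound: single concentration / Signal: immunofluorescence imaging / Read-out: percent E-selectin-positive cells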
RAD52 inh: blocks human RAD52 DNA annealing. 360,000 tested, 0.46% active. inhibition, % at 18.7 µM. AID 651710. recombinant RAD52 DNA annealing, FRET fluorescence;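 active = every replicate showing at least 50% inhibition; inconclusive = mean inhibition at least 50% but not in every replicate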
RAD54 branch: blocks human RAD54 Holliday junction branch migration | 360,000 tested, 0.14% active | FAM/BHQ fluorescence | AID 602329 | inhibition, % at 10.4 µM | Q92698;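 active = mean normalized replicate activity at least 40 and at least half of replicates scoring 40 or more; inconclusive = only one of the two criteria met; inactive = mean below 40 and under half of replicates reaching 40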;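 also: inhibitors cause a drop in the FAM fluorescence signal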
UUG fidelity: alters start codon recognition fidelity in yeast. S. cerevisiae UUG-firefly luciferase reporter, luminescence/redox ratio. 350,000 tested, 0.13% active. activity score, % at 18.7 µM. AID 602363;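 active means replicate mean at a twofold rise or more, about +100% in these data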;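 further: firefly luciferase made from a UUG start codon reports start codon fidelity; reporter light over untreated wells divided by growth signal over untreated wells; some hits fall short of that in this replicate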
XiGFP reactiv: X-chromosome reactivation activator | XiGFP mouse fibroblasts, % GFP-positive cells imaging, 3 d; cells co-treated with 5-aza-dC sensitizer; scaled so ellipticine positive control = 100% | 360,000 tested, 0.055% active | activation, % at 7.58 µM;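 active = mean normalized replicate activation at least 10% and every replicate at or above 10%; inconclusive = only one of the two criteria met; inactive = mean below 10% and not all replicates reach 10%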
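Assay system – SV40-immortalized XiGFP fibroblast cells, line 68-5-11 · Buffer or medium – DMEM supplemented with 5-aza-dC as sensitizing agent · Dosing – one concentration, pinned · Benchmarks – positive control ellipticine, 6 µM final · Times – 3 days compound exposure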
Of the large screens only hits and unclear results are named; the others gave an inactive call; ! = not active in a repeat. Shown are actives, neighbours in structure and some others; about 0.73% of the full set was active somewhere.

C[C@@H]1CN([C@@H](C)CO)C(=O)Cc2cc(NS(=O)(=O)c3cccs3)ccc2O[C@H]1CN(C)C(=O)Nc1ccc(F)cc1	E-selectin induc 30
CCN1/C(=N\N)c2cccc3cccc1c23	E-selectin induc 37 (no result: RAD54 branch, UUG fidelity)
COc1ccc(C#Cc2ccc3c(c2)[C@H]2[C@H](CCN2Cc2ccncc2)[C@@H](CO)N3)cc1	RAD52 inh 63 (no result: RAD54 branch, UUG fidelity)
COc1ccccc1C#Cc1ccc2c(c1)[C@H]1[C@H](CCN1C(=O)c1ccncc1)[C@@H](CO)N2	RAD52 inh 87 (no result: RAD54 branch, UUG fidelity)
C[C@@H]1CN([C@@H](C)CO)C(=O)c2cc(C#C[C@@H](C)O)cnc2O[C@@H]1CN(C)Cc1cccc(C(=O)O)c1	none
CC(=O)N1[C@@H]2c3cccc(=O)n3C[C@@H]2[C@@H](CO)[C@@H]1C(=O)N[C@@H](C)c1ccccc1	none (no result: UUG fidelity)
C[C@@H]1CCCCO[C@@H](CN(C)Cc2ccccc2)[C@@H](C)CN([C@@H](C)CO)C(=O)c2cc(NS(=O)(=O)c3ccc(Cl)cc3)ccc2O1	RAD52 inh 58 (no result: E-selectin induc)
C[C@H]1CCCCO[C@@H](CN(C)Cc2ccccc2)[C@@H](C)CN([C@@H](C)CO)C(=O)c2cc(NS(=O)(=O)c3ccc(Cl)cc3)ccc2O1	none (no result: E-selectin induc)
C[C@@H]1CCCCO[C@H](CN(C)Cc2ccc(C(=O)Nc3ccccc3N)cc2)[C@@H](C)CN([C@H](C)CO)C(=O)c2cc(NS(=O)(=O)c3ccc(F)cc3)ccc2O1	RAD52 inh 59
C[C@H](CO)N1C[C@H](C)[C@H](CN(C)Cc2ccccc2)OCCCC[C@H](C)Oc2ccc(NS(=O)(=O)c3ccc(Cl)cc3)cc2C1=O	RAD52 inh 52 (no result: E-selectin induc)
C[C@@H]1CCCCO[C@H](CN(C)Cc2ccc(C(=O)Nc3ccccc3N)cc2)[C@@H](C)CN([C@H](C)CO)C(=O)c2cc(NS(=O)(=O)c3ccccc3)ccc2O1	none (no result: E-selectin induc, RAD54 branch, UUG fidelity)
C[C@@H]1CN([C@@H](C)CO)C(=O)c2cc(NC(=O)C3CC3)ccc2O[C@H]1CN(C)Cc1ccc(C(=O)Nc2ccccc2N)cc1	none
C[C@H]1CN([C@@H](C)CO)C(=O)c2cc(NC(=O)C3CCCCC3)ccc2O[C@H]1CN(C)Cc1ccc(C(=O)Nc2ccccc2N)cc1	E-selectin induc 29
COc1ccc2c(c1OC)c(=O)n1c3ccc(OC(C)C(=O)NCCCN4CCOCC4)cc3c3ccnc2c31 (stereo unspecified)	RAD54 branch 73 (no result: E-selectin induc, RAD52 inh, XiGFP reactiv)
CC(Oc1ccc2c3c(c(=O)oc2c1)CCCC3)C(=O)NCCN1CCOCC1 (stereo unspecified)	none (no result: E-selectin induc)
Cc1c(OC(C)C(=O)NCCCN2CCOCC2)ccc2c1oc(=O)c1ccccc12 (stereo unspecified)	none (no result: E-selectin induc)
CC(Oc1ccc2c(c1)c1ccnc3c4ccccc4c(=O)n2c13)C(=O)NCCN1CCOCC1 (stereo unspecified)	RAD54 branch 89 (no result: E-selectin induc, RAD52 inh, XiGFP reactiv)
CNC[C@H]1Oc2c(NC(=O)NC(C)C)cccc2C(=O)N([C@H](C)CO)C[C@H]1C	none (no result: UUG fidelity)
CN(C)S(=O)(=O)c1ccc2c(c1)/C(=C/c1cc3c([nH]1)CCCC3)C(=O)N2	E-selectin induc inconclusive, XiGFP reactiv 113
CN(C)S(=O)(=O)c1ccc2c(c1)C(=O)c1cc(S(=O)(=O)N(C)C)ccc1CC2	none (no result: E-selectin induc)
CN(C)C(=O)C[C@@H]1CC[C@@H]2[C@@H](COc3ccc(NC(=O)C4CCCC4)cc3C(=O)N2C)O1	none (no result: RAD54 branch, UUG fidelity)
O=C(COc1ccc(Cl)cc1)Nc1nnc(S(=O)(=O)N2CCCCCC2)s1	E-selectin induc 115
CNC(=O)c1cc2c(ccc3ccccc32)o1	E-selectin induc 78 (no result: RAD54 branch, UUG fidelity)
Cc1ccc(C(=O)Cn2cncn2)cc1	XiGFP reactiv 16 (no result: E-selectin induc)
O=C(Cn1cncn1)c1ccc(Cl)cc1	none
Cc1noc(C)c1S(=O)(=O)Nc1ccc2c(c1)CC(=O)N([C@@H](C)CO)C[C@@H](C)[C@@H](CN(C)S(=O)(=O)c1ccccc1)O2	none
CN(C)c1ccc2c(c1)[C@@H]1C[C@H](CC(=O)NCCN3CCCCC3)O[C@H](CO)[C@@H]1O2	RAD54 branch inconclusive (no result: UUG fidelity)
CN(C)c1ccc2c(c1)[C@@H]1C[C@@H](CC(=O)NCCN3CCCCC3)O[C@H](CO)[C@@H]1O2	RAD54 branch 55 (no result: UUG fidelity)
COc1ccc(C(=O)c2nccc3cc(OC)c(OC)cc23)cc1OC	none (no result: E-selectin induc, RAD52 inh, XiGFP reactiv)
COc1cc2c(cc1OC)-c1c(OC)c(OC)cc3ccnc(c13)C2=O	RAD54 branch 88
CC(NC(=O)/C(C#N)=C/c1ccc([N+](=O)[O-])o1)c1ccccc1 (stereo unspecified)	E-selectin induc 42, XiGFP reactiv 43
CO[C@H]1CN(C)C(=O)c2ccc(NC(=O)C3CCCC3)cc2OC[C@H](C)N(CC2CC2)C[C@@H]1C	none
CCOC(=O)C1(Cc2cccc(OC)c2)CCCN(Cc2cc(C(C)C)n[nH]2)C1 (stereo unspecified)	E-selectin induc 28
CCOC(=O)C1(Cc2cccc(OC)c2)CCN(Cc2ccccc2)CC1	E-selectin induc 33
CCOC(=O)C1(Cc2cccc(OC)c2)CCN(Cc2cccnc2)CC1	none (no result: RAD54 branch, UUG fidelity)
N#C[C@H]1[C@H](c2ccccc2C2=CCCCC2)[C@H](CO)N1C(=O)NC1CCCCC1	none (no result: RAD54 branch, UUG fidelity)
CCC(=O)Nc1ccc2c(c1)OC[C@H](C)N(C(=O)c1ccccc1F)C[C@@H](C)[C@@H](OC)CN(C)C2=O	none
CN(C)C(=O)[C@@H]1[C@@H](CO)[C@@H]2Cn3c(ccc(-c4ccncc4)c3=O)[C@@H]2N1Cc1ccccc1F	none (no result: UUG fidelity)
CO[C@H]1CN(C)C(=O)c2ccc(NS(=O)(=O)c3cn(C)cn3)cc2OC[C@H](C)N(CCC(F)(F)F)C[C@@H]1C	none (no result: RAD54 branch, UUG fidelity)
CC1=[N+](C)c2ccc3ccccc3c2C1(C)C	E-selectin induc 196 (no result: RAD54 branch, UUG fidelity)
C[C@H]1CCCCO[C@H](CN(C)Cc2ccc3c(c2)OCO3)[C@@H](C)CN([C@@H](C)CO)C(=O)c2cc(NS(=O)(=O)c3ccc(Cl)cc3)ccc2O1	RAD52 inh 55 (no result: E-selectin induc)
C[C@@H]1CCCCO[C@@H](CN(C)Cc2ccc3c(c2)OCO3)[C@@H](C)CN([C@H](C)CO)C(=O)c2cc(NS(=O)(=O)c3ccc(Cl)cc3)ccc2O1	none (no result: E-selectin induc)
C[C@@H]1CN([C@H](C)CO)C(=O)c2cc(NS(=O)(=O)c3ccc(Cl)cc3)ccc2O[C@@H](C)CCCCO[C@H]1CN(C)Cc1ccc2c(c1)OCO2	RAD52 inh 52! (no result: E-selectin induc)
C[C@@H]1CCCCO[C@@H](CN(C)Cc2ccc3c(c2)OCO3)[C@@H](C)CN([C@@H](C)CO)C(=O)c2cc(NS(=O)(=O)c3ccc(Cl)cc3)ccc2O1	RAD52 inh 58! (no result: E-selectin induc)
O=C(C[C@H]1CC[C@@H]2[C@H](COC[C@@H](O)CN2S(=O)(=O)c2ccccc2)O1)Nc1ccc(-c2ccccc2)cc1	none
CS(=O)(=O)N1C[C@@H](O)COC[C@@H]2O[C@H](CC(=O)NCc3ccc(-c4ccccc4)cc3)CC[C@H]21	none (no result: UUG fidelity)
O=C(C[C@@H]1CC[C@H]2[C@@H](COC[C@H](O)CN2S(=O)(=O)c2ccccc2)O1)NCc1ccc(-c2ccccc2)cc1	RAD52 inh 80 (no result: UUG fidelity)
